Reference: US4144228A, “Methionine^5 -enkephalin sulfoxides and sulfones” (G. D. Searle & Co., priority 1976, dated 1979)

System: opiate receptor sites
Settings: guinea pig whole brain membrane fraction, 4° C., in the absence of sodium ion

Row | SMILES | ID50 concentration of the 3H-naloxone binding
1 | CN1CC[C@]23c4c5ccc(O)c4O[C@H]2[C@@H](O)C=C[C@H]3[C@H]1C5 [morphine] | 1.2 × 10^-8
2 | CCC(=O)C(CC(C)N(C)C)(c1ccccc1)c1ccccc1 (centres unmarked) [methadone] | 2.4 × 10^-8
